Measurements: patent publication US7595313B2, “Nitric oxide donating diuretic compounds, compositions and methods of use” (NicOx, S.A., priority 2005, dated 2009)

How the values were obtained:
[1] = test system: Male Wistar rats; assay: Determination of the diuresis (urine volume over 6 hours after oral dosing); assay type: in vivo, rat; details: p.o. 3 mg/kg in 0.5% Methocel, mean ± SEM
[2] = test system: contractions elicited by 100 nM angiotensin II in isolated rat aorta; assay: Angiotensin II-induced contractions in rat aorta

SMILES: NS(=O)(=O)c1cc2c(cc1Cl)N([N+](=O)[O-])CN(CC(CO[N+](=O)[O-])O[N+](=O)[O-])S2(=O)=O (stereo not shown)
- Urine collected in 6 hours (mL) (3 mg/kg) ([1]; n=6 or 7): 3.3 ± 0.6 mL

SMILES: NS(=O)(=O)c1cc2c(cc1Cl)NCN(CCCC(CO[N+](=O)[O-])(CO[N+](=O)[O-])CO[N+](=O)[O-])S2(=O)=O
- Urine collected in 6 hours (mL) (3 mg/kg) ([1]; n=6 or 7, 3 mg/kg): 4.3 ± 0.6 mL and 4.1 ± 0.5 mL
- inhibition of angiotensin-II-induced contractions (in words) [2]: significant inhibition
- % INHIBITION of angiotensin II-induced contraction ([2]; test compound 1 × 10^−6 M): 64%

Values joined by “and” are separate entries in the source; they are usually repeats but may differ in a detail not shown here. Identical values can stand only once.
